Measurements as given in US6495314B1, “Process for characterizing proteins” (The Scripps Research Institute, priority 1995, dated 2002).

Assay: Chemical stability and selective cleavage of thioester/ester backbone bonds (HPLC, mass spectrometry)
Conditions: for stability to hydroxylamine: 200 mM NH4HCO3, pH 6.0, up to 12 hours; for stability to base hydrolysis: pH 9.0, 100 mM Tris, 1 M Gn.HCl, 23° C., 30 minutes

Substance | stability to hydroxylamine (1 M NH2OH) | stability to hydroxylamine (1 M NH2OH, listed as YKLFAla-[coo]-YGGFL.amide) | hydrolysis of ester bond (6M Guanidine HCl, 100 mM Na phosphate pH 10, six hours) | time to cleave ester bond by hydrolysis (pH 10) | cleavage by hydroxylamine (1 M NH2OH, 200 mM NH4HCO3, pH 6.0, 30 minutes) | stability to base hydrolysis | stability to base hydrolysis (listed as thioester peptide) | hydrolysis after addition of 1 M NaOH (pH ~13, 10 minutes)
YKLFAla-[COO]-LeuYGGFL.amide | completely stable | stable | Complete hydrolysis was observed | six | – | – | – | –
LYRA-Gly-SβAla-YGGFL.amide | – | – | – | – | completely cleaved | No hydrolysis was observed | no hydrolysis was observed | complete hydrolysis
